# Data as given in patent publication US20250295790A1, “LECTIN-TARGETING CONJUGATES” (Helmholtz-Zentrum für Infektionsforschung GmbH, priority 2021, published 2025).
# Amino acid sequences for entries named in this document (tags omitted).
# UniProt Q9HYN5, entry or part of it: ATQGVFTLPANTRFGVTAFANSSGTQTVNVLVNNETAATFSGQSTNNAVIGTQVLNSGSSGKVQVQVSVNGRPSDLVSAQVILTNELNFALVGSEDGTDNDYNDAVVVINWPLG
# Molecular target: LecB PAO1 (Pseudomonas aeruginosa, UniProt Q9HYN5)
# Assay: biochemical
# Type: binding
# Method: LecB (LecB PAO1 according to Hauck et al. and LecB PA14 according to Sommer et al.): A serial dilution of the test compounds was prepared in TBS/Ca, with 20% DMSO as cosolvent. […] Fluorescence was measured and analysed as for LecA. Bottom and top plateaus were fixed according to the control compound in each assay (1-fucose) and the data was re-analysed with these values fixed. A minimum of three independent measurements on three plates was performed for each inhibitor.
compound,measurement,value
"CO[C@H]1O[C@H](CO)[C@@H](O)[C@H](O)[C@@H]1O [Me-α-D-Man, methyl-α-D-mannoside, reference compound]",Ki,48.6 ± 6.9 µM
